Results taken from ChEMBL document CHEMBL1144888, “Synthesis, structure-activity relationship, and evaluation of SR141716 analogues: development of central cannabinoid receptor ligands with lower lipophilicity” (J Med Chem, 2003).

Sequences of proteins named here, by UniProt entry; tags and fusion partners are left off.
UniProt P20272, whole entry: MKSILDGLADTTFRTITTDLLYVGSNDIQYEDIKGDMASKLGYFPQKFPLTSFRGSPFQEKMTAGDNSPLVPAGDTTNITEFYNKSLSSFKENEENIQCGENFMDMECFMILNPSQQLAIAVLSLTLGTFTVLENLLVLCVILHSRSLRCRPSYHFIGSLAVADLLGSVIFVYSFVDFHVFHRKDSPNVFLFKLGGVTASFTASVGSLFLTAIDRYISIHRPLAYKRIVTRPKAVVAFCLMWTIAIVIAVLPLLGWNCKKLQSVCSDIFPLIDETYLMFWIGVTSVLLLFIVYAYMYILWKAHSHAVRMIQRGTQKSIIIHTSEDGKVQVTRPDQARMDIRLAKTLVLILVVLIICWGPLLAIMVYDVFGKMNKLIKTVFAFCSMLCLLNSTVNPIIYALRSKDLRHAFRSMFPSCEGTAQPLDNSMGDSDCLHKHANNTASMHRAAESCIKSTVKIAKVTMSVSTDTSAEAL

Target: Cannabinoid receptor 1 (Rattus norvegicus, UniProt P20272)

COc1ccc(-c2c(C)c(C(=O)NN3CCCCC3)nn2-c2ccc(Cl)cc2Cl)cc1
Ki: 4.1 nM
